PMC9095466 (Nature, 2022)

Tested on: SARS-CoV-2 (USA-WA1/2020, lineage A)
Assay: K18-hACE2 mouse model of SARS-CoV-2, H&E histopathology of lung and brain
Details: individual mice, 8-day regimen, most severely affected vessel

| Structure (SMILES) | Perivascular infiltrates in CNS score |
| --- | --- |
| CS(=O)(=O)NC(CCC(N)=O)C(=O)NC(Cc1ccccc1)C(=O)NC(CCCNC(=N)N)C(=O)c1nc2ccccc2s1 (centres unmarked) [Compound N-0385, Ms-QFR-kbt] | 3 ((3) complete cuff two to three cells thick) |
| CS(=O)(=O)NC(CCC(N)=O)C(=O)NC(Cc1ccccc1)C(=O)NC(CCCNC(=N)N)C(O)c1nc2ccccc2s1 (centres unmarked) [N-0385(OH), Ms-QFR-Kbt(OH)] | 3 ((3) complete cuff two to three cells thick) |
